Measurements taken from PubChem BioAssay AID868 (SRMLSC, 2007).
The list shows a part of the results, in another mix than the full data. Calls of active or inactive are those of the source.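 The calls were made as follows: active = inhibition above a set limit, 3 SD over mean compound inhibition (cut at about 8.4% in these data); inactive = the rest.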

Test: RAM signaling blockers in budding yeast – dse1pr::URA3 reporter, 5-FOA selection, primary screen (AID 868);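 also: 0% = DMSO-only wells with no growth and 100% = 10 µM 1-NA-PP1 full growth; inhibition rescues growth on 5-FOA so higher OD means more RAM inhibition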
Details: S. cerevisiae dse1pr::URA3 reporter, 5-FOA growth OD615, 2 d; at 50 µM; active compounds read high; analog-sensitive cbk1-as2 kinase mutant strain
With `O=P(Nc1ccccn1)(c1ccc(Br)cc1)c1ccc(Br)cc1` the inhibition was inactive: 0%.
In the case of `CC(=O)NC(SC(=S)N(C)C)C(Cl)(Cl)Cl` (stereo not drawn), the inhibition is reported as inactive: -0.93%.
In the case of `C(Cc1nn[nH]n1)Cc1nn[nH]n1`, the inhibition is reported as inactive: 1.6%.
With `O=C(OC1CN2CCC1CC2)c1cccc(Cl)c1` (stereo not drawn) the inhibition was inactive: -0.39%.
For `O=P(Nc1nccs1)(c1ccccc1)c1ccccc1`, the inhibition was inactive: 0.89%.
With `CC(C)C(=O)NC(Sc1ccccc1)C(Cl)(Cl)Cl` (stereo not drawn) the inhibition was inactive: 0.99%.
In the case of `c1nnnn1CCn1cnnn1`, the inhibition is reported as inactive: -0.55%.
With `CCOc1ccc(C2=NCC(CBr)S2)cc1` (stereo not drawn) the inhibition was inactive: 2.6%.
With `O=P1(Nc2nc3ccc(Cl)cc3s2)COc2ccccc2O1` (stereo not drawn) the inhibition was inactive: 1.62%.
In the case of `CC(C)(C)C(=O)NC(Sc1ccccc1)C(Cl)(Cl)Cl` (stereo not drawn), the inhibition is reported as inactive: 0.64%.
In the case of `CC(=O)Nc1ccc(Oc2c([N+](=O)[O-])cc([N+](=O)[O-])cc2[N+](=O)[O-])cc1`, the inhibition is reported as inactive: 1.89%.
For `O=C(NC1CCS(=O)(=O)C1)NP(=S)(Oc1ccccc1)Oc1ccccc1` (stereo not drawn), the inhibition was inactive: 1.21%.
With `CCNC(=S)/N=C(\N)N[N+](=O)[O-]` the inhibition was inactive: 0.25%.
For `CCOC(=O)NC(Sc1ccccc1)C(Cl)(Cl)Cl` (stereo not drawn), the inhibition was inactive: -0.52%.
With `c1ccc(-c2nn[nH]n2)c(-c2nn[nH]n2)c1` the inhibition was inactive: 0.37%.
For `Cc1ccc(OP(=O)(Nc2ccccn2)Oc2ccc(C)cc2)cc1`, the inhibition was inactive: -0.68%.
For `CC(=O)NC(SC(=S)N(CC(C)C)CC(C)C)C(Cl)(Cl)Cl` (stereo not drawn), the inhibition was inactive: 0%.
With `COC(=O)c1cc2c(s1)N=C(c1ccccc1)N(C)P2(=O)N1CCOCC1` (stereo not drawn) the inhibition was inactive: -0.13%.
For `CCC(=O)N1C2C3N(C(=O)CC)C1C1N(C(=O)CC)C(C(N1C(=O)CC)N3C(=O)CC)N2C(=O)CC`, the inhibition was inactive: -0.79%.
With `O=c1c2cc([N+](=O)[O-])ccc2[nH]c2c([N+](=O)[O-])cc([N+](=O)[O-])cc12` the inhibition was inactive: 2.88%.
In the case of `Cc1cc(SC(NC(=O)c2ccc(F)cc2)C(Cl)(Cl)Cl)ncn1` (stereo not drawn), the inhibition is reported as inactive: 2.65%.
In the case of `CCOP(=O)(Nc1ccccc1)OCC`, the inhibition is reported as inactive: 1.04%.
With `CCN(N=Nc1nonc1N)c1nonc1N` the inhibition was inactive: 0.39%.
For `NC(=O)c1cc([N+](=O)[O-])cc([N+](=O)[O-])c1N`, the inhibition was inactive: -0.62%.
For `Cc1ccc(N/C(=N/P(=O)(N2CCOCC2)N2CCOCC2)N2CCOCC2)cc1`, the inhibition was inactive: 0.88%.
In the case of `COc1ccccc1OP(=O)(Nc1ccc(C)cn1)Oc1ccccc1OC`, the inhibition is reported as inactive: 0.12%.
In the case of `CN1CCCC(OC(=O)C(c2ccccc2)c2ccccc2)C1` (stereo not drawn), the inhibition is reported as inactive: -0.7%.
In the case of `Clc1ccc(Cl)c(NC2=NCC(CBr)S2)c1` (stereo not drawn), the inhibition is reported as inactive: 3.29%.
In the case of `CC(C)CC(=O)NC(Sc1ccc(Cl)cc1)C(Cl)(Cl)Cl` (stereo not drawn), the inhibition is reported as inactive: 1.4%.
With `O=C(NC(Sc1ccncn1)C(Cl)(Cl)Cl)c1ccccc1` (stereo not drawn) the inhibition was inactive: 0.69%.
In the case of `Cc1c2non([O-])c-2c(C)[n+](=O)[n+]1[O-]`, the inhibition is reported as inactive: -1.72%.
With `Oc1ccccc1CNc1ccccn1` the inhibition was inactive: 0.91%.
For `COc1ccc(C2=NCC(CBr)S2)cc1` (stereo not drawn), the inhibition was inactive: 0.83%.
In the case of `CC(=O)N1C2C3N(C(C)=O)C1C1N(C(C)=O)C(C(N1C(C)=O)N3C(C)=O)N2C(C)=O`, the inhibition is reported as inactive: 3.15%.
In the case of `O=[N+]([O-])c1cccc2n[nH]nc12`, the inhibition is reported as inactive: -0.22%.
In the case of `O=[N+]([O-])c1cc([N+](=O)[O-])c(CCNc2ccccc2)c([N+](=O)[O-])c1`, the inhibition is reported as inactive: 3%.
In the case of `CCc1nc2c(n1)c1c(non1O)c1c2no[n+]1[O-]`, the inhibition is reported as inactive: 0.93%.
For `Cc1ccc(NP(=O)(Oc2ccccc2)Oc2ccccc2)nc1`, the inhibition was inactive: 1.94%.
With `CCN(/C(=N/P(=O)(N1CCOCC1)N1CCOCC1)N1CCOCC1)c1ccc(OC)cc1` the inhibition was inactive: 1.46%.
In the case of `CN(C)C(=O)OCCc1n(C)cc[n+]1C`, the inhibition is reported as inactive: 1.57%.
With `CC(C)=N/N=C(\N)N[N+](=O)[O-]` the inhibition was inactive: 0.92%.
For `CC1CCN(C(=O)Oc2c(Cl)cc(Cl)c3cccnc23)CC1`, the inhibition was inactive: -1.86%.
With `O=[N+]([O-])c1ncn(CCn2ncnc2[N+](=O)[O-])n1` the inhibition was inactive: 1.83%.
For `Cc1cc(SC(NC(=O)c2ccccc2)C(Cl)(Cl)Cl)nc(C(C)C)n1` (stereo not drawn), the inhibition was inactive: 0.24%.
For `Cc1cc(SC(NC=O)C(Cl)(Cl)Cl)ncn1` (stereo not drawn), the inhibition was inactive: 0.49%.
For `O=P(Nc1ccccn1)(c1cccc2ccccc12)c1cccc2ccccc12`, the inhibition was inactive: 0.38%.
In the case of `COP1(=S)c2c(C)nn(CCC#N)c2N=C(c2ccc(F)cc2)N1C` (stereo not drawn), the inhibition is reported as inactive: 0.88%.
With `O=C(COc1ccccc1)OC1CN2CCC1CC2` (stereo not drawn) the inhibition was inactive: 0.8%.
With `CCC(C)N(CC(C)C)C(=S)SC(NC(C)=O)C(Cl)(Cl)Cl` (stereo not drawn) the inhibition was inactive: 0.49%.
In the case of `Cc1cc(=O)[nH]c(N[N+](=O)[O-])n1`, the inhibition is reported as inactive: -0.13%.
With `O=C(OC1CN2CCC1CC2)C12CC3CC(CC(C3)C1)C2` (stereo not drawn) the inhibition was inactive: 0.55%.
For `Cc1c2c(nc3ccccc13)SC(C(Cl)Cl)C2` (stereo not drawn), the inhibition was inactive: -0.62%.
With `COc1ccc2nc(NP(=O)(c3ccccc3)c3ccccc3)sc2c1` the inhibition was inactive: 1.7%.
In the case of `COc1ccc(N/C(=N/P(=O)(N2CCOCC2)N2CCOCC2)N2CCOCC2)cc1`, the inhibition is reported as inactive: 0.28%.
With `Cc1ccc2nc3c(c(C)c2c1)CC(C(Cl)Cl)S3` (stereo not drawn) the inhibition was inactive: 1.45%.
In the case of `ClCCSc1nnc(-c2cccnc2)o1`, the inhibition is reported as inactive: 0.25%.
In the case of `O=[N+]([O-])c1cc([N+](=O)[O-])c(-c2ccn[nH]2)s1`, the inhibition is reported as inactive: -1.25%.
With `CC(C)NC(=O)NP(=O)(Oc1ccccc1)Oc1ccccc1` the inhibition was inactive: 3.52%.
For `CCN(CC)C(=S)SC(NC=O)C(Cl)(Cl)Cl` (stereo not drawn), the inhibition was inactive: 0.26%.
In the case of `O=P(Nc1nccs1)(Oc1ccccc1)Oc1ccccc1`, the inhibition is reported as inactive: 1.38%.
With `O=P(Nc1nccs1)(c1ccccc1)c1nc2ccccc2s1` (stereo not drawn) the inhibition was inactive: -0.11%.
In the case of `CCOP1(=S)c2c(C)nn(CCC#N)c2N=C(c2ccccc2F)N1C` (stereo not drawn), the inhibition is reported as inactive: 0.88%.
In the case of `O=[N+]([O-])c1ccc2c(c1)nnn2O`, the inhibition is reported as inactive: -0.88%.
In the case of `CCOP1(=S)c2c(C)nn(CCC#N)c2N=C(c2ccc(F)cc2)N1C` (stereo not drawn), the inhibition is reported as inactive: 1.67%.
For `COc1cc(C(=O)NCC2(N3CCOCC3)CCCCC2)cc(Cl)c1OC(C)C`, the inhibition was inactive: 0.83%.
With `Cc1cccc(OCC(=O)OC2CN3CCC2CC3)c1` (stereo not drawn) the inhibition was inactive: 2.31%.
For `Cc1ccc(NCCc2c([N+](=O)[O-])cc([N+](=O)[O-])cc2[N+](=O)[O-])cc1`, the inhibition was inactive: 6.93%.
For `CCOP(=O)(Nc1cccc2ccccc12)OCC`, the inhibition was inactive: 2.95%.
With `COc1cc(C2NCCC3(OCCO3)C2(C)C)cc(OC)c1OC` (stereo not drawn) the inhibition was inactive: 1.03%.
In the case of `O=P1(Nc2ccccn2)COc2ccccc2OC1`, the inhibition is reported as inactive: 1.01%.
With `Clc1n[nH]nc1-c1nn[nH][15n]1` the inhibition was inactive: 0.35%.
With `CC(C)/C=N\N=C(\N)N[N+](=O)[O-]` the inhibition was inactive: 0.91%.
For `CC1CCC(C(C)C)C(OP(=O)(Nc2ccccn2)c2ccccc2)C1` (stereo not drawn), the inhibition was inactive: 0.13%.
In the case of `Cc1nn(-c2ccccc2)c2c1P(=O)(N1CCOCC1)N(C)C(c1ccccc1)=N2` (stereo not drawn), the inhibition is reported as inactive: 1.18%.
In the case of `CN(C)C1(CNC(=O)c2ccc(S(C)(=O)=O)cc2)CCCCC1`, the inhibition is reported as inactive: 1.39%.
For `O=P1(Nc2ncccn2)COc2ccccc2OC1`, the inhibition was inactive: 1.01%.
With `Cc1ccc(OCC(=O)OC2CN3CCC2CC3)cc1` (stereo not drawn) the inhibition was inactive: 2.64%.
For `O=P1(Nc2ccc(Br)cn2)COc2ccccc2OC1`, the inhibition was inactive: 0.95%.
